Binding of CDR-mutated scFvs to a peptide of the spike HR2 region

Target peptide (SARS-CoV-2 spike, HR2 region): PDVDLGDISGINAS

Parent: Ab-95, a human scFv built as VH, the linker GGGGSGGGGSGGGGS, VL. Only the CDRs of the light chain vary.
VH: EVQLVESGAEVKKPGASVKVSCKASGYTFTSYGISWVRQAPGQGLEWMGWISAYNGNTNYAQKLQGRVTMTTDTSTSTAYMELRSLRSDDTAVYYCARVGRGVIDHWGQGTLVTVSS
VL: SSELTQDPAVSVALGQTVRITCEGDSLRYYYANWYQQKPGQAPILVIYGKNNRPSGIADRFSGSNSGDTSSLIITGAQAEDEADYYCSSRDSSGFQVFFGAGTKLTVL

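The parent was found by panning a naive human phage display library on the peptide. AAYL52 was designed without a model: most single CDR substitutions and a random sample of double and triple ones. In AlphaSeq, yeast of one mating type display the scFv and yeast of the other type display the target. Binding brings cells together so that they mate, and sequencing counts the barcode pairs among the diploids. Read counts were normalised to the haploid input and turned into Kd by a linear fit to BCL2-family pairs of known affinity, for each replicate. The assay was run in three technical replicates.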

The parent's light chain CDRs are EGDSLRYYYAN, GKNNRPS, SSRDSSGFQVF; each variant's own CDRs replace them letter for letter. All variants listed here change S89 of the VL, counted from its first residue. Numbers give log10(Kd / nM), so 0 is 1 nM and 3 is 1 µM. Smaller is tighter. Averages over replicates are reported, and they cover detected replicates only. "not detected" marks a missing value. The strain was present, yet no cells mated with the target were sequenced in any replicate, which points to weak or no binding. For reference, the parent read 2.31 as the reference entry and 2.25 as a member of this library.

CDR-L1,CDR-L2,CDR-L3,mean log10 Kd (nM),replicates with signal,control signals
EGDSLRYYYAN,GKNNIPS,SIRDSSGFQVF,2.65,2 of 3,2 of 9
EGPSLRYYYAN,GKQNRPS,SMRDSSGFQVF,3.59,3 of 3,3 of 9
EGDSLRYYYAN,GKNDRPS,SWRDSSGFCVF,2.46,3 of 3,1 of 9
EGDSLRYYYAN,GKNNRPS,VRRDSSGFQVI,not detected,0 of 3,0 of 9
MGDSLRYYYAN,GKNNRPS,SNRDSSGFQVF,3.18,3 of 3,8 of 9
EGDSLRYYYAN,GKNNRPS,SRTDSSGFQVF,2.79,3 of 3,5 of 9
EGSSLRYYYAN,GKNNRTS,SRRDSSGFQVF,3.10,1 of 3,5 of 9
EGDSLRKYYAN,GKNNRPS,SVRDSSVFQVF,3.55,3 of 3,3 of 9
EGDSLRYYYAN,GSNNRPS,SVRDGSGFQVF,3.12,3 of 3,2 of 9
EMDSLRYYYAN,GKNNRPS,SDRDSSGFQVS,3.59,3 of 3,2 of 9
EGDSLRYYYAN,GKNNRPS,RYRDPSGFQVF,not detected,0 of 3,2 of 9
EEDSLRYYYAN,GKNNRPS,SERDSSGFQAF,4.91,1 of 3,0 of 9
FGDSLRYYYAN,GKKNRPS,SFRDSSGFQVF,not detected,0 of 3,0 of 9
EDDSLRYYYAN,GKNNRPS,SWRDSKGFQVF,3.83,2 of 3,1 of 9
EYDSLRYYYSN,GKNNRPS,SMRDSSGFQVF,3.68,1 of 3,0 of 9
EGDSLRYYYAN,GKNNRPS,SDRDGSPFQVF,2.26,3 of 3,3 of 9
SGDSLRYYYAN,PKNNRPS,SCRDSSGFQVF,3.92,1 of 3,4 of 9
EGDSLRYSYAI,GKNNRPS,SNRDSSGFQVF,3.58,3 of 3,1 of 9
EGDSLRYYYAN,GKNNHPS,SHQDSSGFQVF,3.83,2 of 3,4 of 9
EFDSLRYQYAN,GKNNRPS,SDRDSSGFQVF,1.77,3 of 3,0 of 9
EGDSLRYYYAN,GKNNRPS,SGRDSSRFQVF,2.92,3 of 3,2 of 9
EQDSLRYYYAN,GKNNRPS,STRDSSGFQVF,3.46,2 of 3,0 of 9
EGDSLRYYYAN,GKNNRPS,SVFDASGFQVF,2.74,3 of 3,3 of 9
EGDSLRQYYAN,GKNNRPS,SNRDSSGFQVF,3.25,3 of 3,3 of 9
EGDSLRYYYAN,HKNNRPS,SDRDSSGHQVF,3.72,3 of 3,4 of 9
EGDSLRYYYAN,GKNNCPS,SYRDSSGFLVF,4.55,2 of 3,0 of 9
EGDSLRYYYAG,GGNNRPS,SRRDSSGFQVF,3.28,3 of 3,4 of 9
EGDSLRAYYAN,GKNNRPS,SPRDSSGFQVF,4.13,1 of 3,4 of 9
EGDSLRYYYWN,GKNNRPS,SFRDSSIFQVF,4.01,2 of 3,1 of 9
EGDSLRYYYAN,GKNVRPS,SCRDSSGFQVQ,2.53,3 of 3,4 of 9
EGDSLRYYYAN,GYNNRPS,SPRDSSGFQVF,3.83,2 of 3,3 of 9
EGDSLRYYYAN,GKNNRPS,SLRDASGYQVF,3.51,3 of 3,3 of 9
EGDTLRYYYAN,GKNNRPS,SRRDSSGFQVF,not detected,0 of 3,0 of 9
EGDSLRYYYAY,GKNNRPS,SDRDSSGFQVF,5.07,1 of 3,4 of 9
EGDSLRYYYAN,GKNDRPS,SEEDSSGFQVF,not detected,0 of 3,2 of 9
EGDSLRYYYAN,CKNNRGS,SHRDSSGFQVF,3.89,1 of 3,3 of 9
EGDSERYYYAN,GKNNRPS,SMRDSSLFQVF,4.04,1 of 3,0 of 9
ESDSLRYYYAN,GKNNRPS,SGRDSPGFQVF,3.50,2 of 3,3 of 9
EGDSKRYYYAN,GKNNRPS,SERDSSGFQVF,2.98,3 of 3,6 of 9
EGDSLRYYLAN,GKNNRPS,SWRDSSGFQVF,2.64,3 of 3,5 of 9
EGDSLRYYYAN,GKNNRPS,LKEDSSGFQVF,3.29,3 of 3,2 of 9
EGDSLRYYYAN,GKNNRPS,CTRDISGFQVF,3.08,3 of 3,4 of 9
EGDSLRYYYAN,GKNNRPS,SFRDSGGFWVF,3.33,1 of 3,3 of 9
EGDSLKYYYTN,GKNNRPS,SRRDSSGFQVF,3.52,3 of 3,4 of 9
EGDSGRYYYAN,GKNNRPS,SCRDSSGFQVH,3.44,3 of 3,3 of 9
EGDSLRYYYAN,GKNNRPS,GFRDSIGFQVF,2.85,3 of 3,2 of 9
EGDSLRYYYAN,GKNNRPV,SVRRSSGFQVF,3.06,3 of 3,2 of 9
EGDGLRYYYAN,GKNNRPS,SYRDSSGFQVF,3.84,2 of 3,1 of 9
EFDSLRYYYAN,GKNNRPS,SFRDSSGEQVF,3.01,3 of 3,4 of 9
EGWSLVYYYAN,GKNNRPS,SGRDSSGFQVF,2.90,2 of 3,3 of 9
EGDSLRYYYAN,GKNNRPS,SIRDSSGFQFF,3.20,1 of 3,2 of 9
EGDSLRYYYAN,GCNNRPS,STRDCSGFQVF,3.29,3 of 3,6 of 9
EGDSLRYYYAN,GKNNNPS,ANRDSSGFQVF,3.58,1 of 3,0 of 9
EGFSLRYYIAN,GKNNRPS,STRDSSGFQVF,4.19,1 of 3,3 of 9
EGDSLRYYYAN,GKNNRPS,SIRDFSGFQVF,3.01,3 of 3,3 of 9
EGDSLRYYYAN,GSSNRPS,SKRDSSGFQVF,4.28,1 of 3,2 of 9
EGDSLRYYYAN,GKINRPS,SLRDSSGFQVF,4.26,1 of 3,4 of 9
EGDSLRIYYAN,GKNNRWS,SLRDSSGFQVF,4.76,2 of 3,3 of 9
EFDCLRYYYAN,GKNNRPS,SRRDSSGFQVF,4.31,1 of 3,4 of 9
LGDSLRYYYAN,GKNNRPR,SHRDSSGFQVF,3.28,3 of 3,2 of 9
EGHSLRYYYAN,GKNNRPS,SGRDSSGFCVF,3.70,2 of 3,5 of 9
EGDSLRYYYAN,GKNNRPS,SNRDSSGFIVF,3.03,3 of 3,1 of 9

Repeated from above, the 5 best binders with a signal in all replicates:

{"CDR-L1": "EFDSLRYQYAN", "CDR-L2": "GKNNRPS", "CDR-L3": "SDRDSSGFQVF", "mean log10 Kd (nM)": "1.77", "replicates with signal": "3 of 3", "control signals": "0 of 9"}
{"CDR-L1": "EGDSLRYYYAN", "CDR-L2": "GKNNRPS", "CDR-L3": "SDRDGSPFQVF", "mean log10 Kd (nM)": "2.26", "replicates with signal": "3 of 3", "control signals": "3 of 9"}
{"CDR-L1": "EGDSLRYYYAN", "CDR-L2": "GKNDRPS", "CDR-L3": "SWRDSSGFCVF", "mean log10 Kd (nM)": "2.46", "replicates with signal": "3 of 3", "control signals": "1 of 9"}
{"CDR-L1": "EGDSLRYYYAN", "CDR-L2": "GKNVRPS", "CDR-L3": "SCRDSSGFQVQ", "mean log10 Kd (nM)": "2.53", "replicates with signal": "3 of 3", "control signals": "4 of 9"}
{"CDR-L1": "EGDSLRYYLAN", "CDR-L2": "GKNNRPS", "CDR-L3": "SWRDSSGFQVF", "mean log10 Kd (nM)": "2.64", "replicates with signal": "3 of 3", "control signals": "5 of 9"}

Nonspecific signal, from three strains lacking the peptide, appeared in 28% of pairings of library AAYL52, centred on 3.91 (5% of these signals below 2.90); values are not corrected for it. For each scFv, signals with the empty controls are counted beside the result.

The measurements come from Engelhart et al. 2022 (doi:10.1038/s41597-022-01779-4) through the FLAb antibody collection.